What was measured:
αvβ6 integrin (human) = αvβ6 integrin (human) (UniProt P06756); test: flow cytometry, Cy5-polymer conjugate 5 µg/ml, H2009 cells
αvβ6 integrin = molecular target: T1, αvβ6 integrin (human, UniProt P06756 31-1048; P18564 22-788); test: as above
T1 construct: whole, on cells; target is the endogenous integrin on αvβ6 positive-control cell lines; also called Integrin alpha-v beta-6
Source text: B. αvβ6 ligand binding (flow cytometric analyses). To assess for specificity of binding of the αvβ6 ligands to the αvβ6 integrin, each αvβ6 ligand or negative control peptide was conjugated to a Cy5-labeled polymer (as described above) and evaluated for binding to cells. […] H2009 (human lung epithelial adenocarcinoma) and CAPAN-2 (human pancreas adenocarcinoma) cells served as the αvβ6 positive-control cell lines. Cells were detached from culturing flasks with Accutase, washed in PBS, and seeded into 5 ml polystyrene round-bottom tubes at 200,000 cells in 200 μl complete media (culturing media with supplements and fetal calf serum). αvβ6 ligand-polymer conjugates or no-ligand-polymer conjugates were added at 5 μg/ml (polymer-Cy5 concentration) to cells, mixed and incubated at 37° C. for 3 h. […] Samples were analyzed on a BD Biosciences Canto II cytometer equipped with a violet (405 nm), blue (488 nm) and red (633 nm) lasers.
Viable cells were initially gated as the SYTOX blue negative population on the C detector with the violet laser. These viable cells were then assessed for conjugate binding/uptake with the red laser as the Mean Fluorescence Intensity (MFI) of the Cy5 fluorophore. […] A specific MFI Ratio (sMFIr) for each αvβ6 ligand was determined by the formula: […]

Sequences of proteins named here, by UniProt entry; tags and fusion partners are left off. Residues count along the entry.
UniProt P06756, 31-1048, chain 1 of 2: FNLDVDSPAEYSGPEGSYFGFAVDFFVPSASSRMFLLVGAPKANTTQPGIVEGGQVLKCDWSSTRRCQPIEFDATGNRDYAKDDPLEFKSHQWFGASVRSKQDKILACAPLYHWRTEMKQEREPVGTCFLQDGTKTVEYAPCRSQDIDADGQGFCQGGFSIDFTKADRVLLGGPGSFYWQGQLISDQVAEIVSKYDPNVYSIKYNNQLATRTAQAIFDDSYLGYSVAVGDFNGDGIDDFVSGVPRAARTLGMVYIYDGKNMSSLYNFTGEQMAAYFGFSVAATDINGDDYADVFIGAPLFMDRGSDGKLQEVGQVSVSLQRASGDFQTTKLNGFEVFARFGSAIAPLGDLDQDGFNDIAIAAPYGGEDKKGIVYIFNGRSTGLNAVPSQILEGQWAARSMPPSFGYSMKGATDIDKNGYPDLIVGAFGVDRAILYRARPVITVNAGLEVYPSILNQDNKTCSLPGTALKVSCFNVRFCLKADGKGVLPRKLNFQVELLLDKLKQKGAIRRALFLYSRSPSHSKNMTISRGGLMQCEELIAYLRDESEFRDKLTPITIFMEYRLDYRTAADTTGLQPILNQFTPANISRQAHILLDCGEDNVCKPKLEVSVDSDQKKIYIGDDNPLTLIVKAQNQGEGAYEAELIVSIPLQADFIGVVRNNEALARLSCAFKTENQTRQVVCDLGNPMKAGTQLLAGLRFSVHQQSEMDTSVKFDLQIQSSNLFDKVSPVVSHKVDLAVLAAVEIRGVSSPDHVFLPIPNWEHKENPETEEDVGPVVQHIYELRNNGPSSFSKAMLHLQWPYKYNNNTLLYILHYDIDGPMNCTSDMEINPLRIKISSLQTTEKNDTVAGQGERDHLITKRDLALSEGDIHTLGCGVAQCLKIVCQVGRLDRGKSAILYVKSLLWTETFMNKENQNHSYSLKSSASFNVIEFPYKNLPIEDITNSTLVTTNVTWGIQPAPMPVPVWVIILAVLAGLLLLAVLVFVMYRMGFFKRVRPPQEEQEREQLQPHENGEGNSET
αvβ6 integrin, UniProt P18564, 22-788, chain 2 of 2: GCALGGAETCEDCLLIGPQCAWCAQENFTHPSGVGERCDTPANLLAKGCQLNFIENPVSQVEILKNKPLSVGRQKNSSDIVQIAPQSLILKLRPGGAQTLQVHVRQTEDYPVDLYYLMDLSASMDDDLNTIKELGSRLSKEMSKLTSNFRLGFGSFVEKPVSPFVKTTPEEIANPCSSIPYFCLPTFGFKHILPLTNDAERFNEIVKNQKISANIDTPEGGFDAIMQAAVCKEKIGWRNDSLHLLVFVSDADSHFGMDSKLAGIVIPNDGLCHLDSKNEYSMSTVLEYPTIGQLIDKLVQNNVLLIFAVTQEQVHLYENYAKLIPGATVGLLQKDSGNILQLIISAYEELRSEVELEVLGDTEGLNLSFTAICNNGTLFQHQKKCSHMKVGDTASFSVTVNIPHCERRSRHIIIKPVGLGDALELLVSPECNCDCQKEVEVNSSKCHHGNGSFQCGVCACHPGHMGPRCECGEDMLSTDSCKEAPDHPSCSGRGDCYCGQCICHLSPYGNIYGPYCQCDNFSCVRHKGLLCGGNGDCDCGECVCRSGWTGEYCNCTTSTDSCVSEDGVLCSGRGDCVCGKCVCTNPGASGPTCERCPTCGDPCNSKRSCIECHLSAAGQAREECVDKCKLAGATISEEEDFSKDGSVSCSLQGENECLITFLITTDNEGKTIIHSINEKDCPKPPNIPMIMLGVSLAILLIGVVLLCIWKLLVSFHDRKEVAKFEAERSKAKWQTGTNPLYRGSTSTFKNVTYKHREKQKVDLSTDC

Row | Molecule | MFI (specific MFI ratio, sample/no-ligand) (αvβ6 integrin (human)) | MFI (specific MFI ratio, sample/no-ligand) (αvβ6 integrin)
1 | Ac-…ibL (peptide) | 3.9 | 
2 | Ac-…buL (peptide) | 4.26 | 
3 | RGDLATLR |  | 4.6 ratio

Reference: patent publication US20220024975A1 (ARROWHEAD PHARMACEUTICALS, published 2022)
